This is an account of results in US8609812B2, “Use of β-2-microglobulin to assess glomerular alterations and damage in the kidney” (Novartis AG, priority 2007, dated 2013).

This series relates to liver. The settings on record: ANIT study, relation to dose.

In the case of `S=C=Nc1cccc2ccccc12` [ANIT, alpha-naphtylisothiocyanate], the “biomarker levels (ALAT, lipocalin-2, GST-mu in plasma; lipocalin-2 in urine), fold changes versus controls” value was “correlate well with the dose”.
